# Source: patent US7179800B2 (priority 2002, dated 2007)
# By UniProt entry, the sequences of proteins in these tests, tags left out.
# UniProt P20272, whole entry: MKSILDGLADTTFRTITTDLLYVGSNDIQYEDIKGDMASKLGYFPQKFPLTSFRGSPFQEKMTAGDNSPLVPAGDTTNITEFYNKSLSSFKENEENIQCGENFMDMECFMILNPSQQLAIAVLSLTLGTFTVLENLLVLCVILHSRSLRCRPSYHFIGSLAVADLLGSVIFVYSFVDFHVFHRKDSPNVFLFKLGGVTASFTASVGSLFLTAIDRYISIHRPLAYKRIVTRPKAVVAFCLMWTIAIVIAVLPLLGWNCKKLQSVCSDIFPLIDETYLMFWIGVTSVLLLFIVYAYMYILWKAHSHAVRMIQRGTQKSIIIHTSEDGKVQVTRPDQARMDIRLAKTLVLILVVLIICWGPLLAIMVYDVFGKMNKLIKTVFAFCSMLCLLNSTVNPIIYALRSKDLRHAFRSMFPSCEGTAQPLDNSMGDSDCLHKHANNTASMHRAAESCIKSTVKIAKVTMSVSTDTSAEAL
# UniProt P34972, whole entry: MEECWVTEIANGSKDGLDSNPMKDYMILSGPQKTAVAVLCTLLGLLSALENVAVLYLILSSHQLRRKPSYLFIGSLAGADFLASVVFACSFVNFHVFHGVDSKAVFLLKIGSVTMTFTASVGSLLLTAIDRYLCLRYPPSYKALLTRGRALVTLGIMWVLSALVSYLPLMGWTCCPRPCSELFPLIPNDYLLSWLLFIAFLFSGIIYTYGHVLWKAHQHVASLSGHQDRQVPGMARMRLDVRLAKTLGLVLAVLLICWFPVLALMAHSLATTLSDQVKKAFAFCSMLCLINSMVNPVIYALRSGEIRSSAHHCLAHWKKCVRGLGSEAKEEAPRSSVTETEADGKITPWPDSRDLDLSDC
# How the values were obtained:
# CB1 receptor = CB1 receptor (Rattus norvegicus, UniProt P20272); assay: CB1 binding procedure: displacement of [3H]CP 55,940 from rat whole-brain P2 membranes; settings: read-out: Ki (nM) CB1; means ± SEM; [3H]CP 55,940, rat brain membranes
# Male ICR mice [1] = assay: Suppression of spontaneous activity (SA) in mice; type: in vivo, mouse; settings: Table 6; @ 30 (mg/kg)
# Procedure: (§1) Male ICR mice (25–32 g), obtained from Harlan (Dublin, Va.), were housed in groups of five. All animals were kept in a temperature-controlled (20–22° C.) environment with a 12-hour light-dark cycle (lights on at 7 a.m.). Separate mice were used for testing each drug dose in the in vivo behavioral procedures. Brain tissue for binding studies was obtained from male Sprague-Dawley rats (150–200 g) purchased from Harlan Laboratories (Dublin, Va.).
# (§2) Measurement of spontaneous activity in mice occurred in standard activity chambers interfaced with a Digiscan Animal Activity Monitor (Omnitech Electronics, Inc., Columbus, Ohio). […]
# (§3) Prior to testing in the behavioral procedures, mice were acclimated to the experimental setting (ambient temperature 22–24° C.) overnight. Pre-injection control values were determined for rectal temperature and tail-flick latency (in sec). […] Tail-flick latency was measured at 20 min post-injection. […] Antinociception was calculated as percent of maximum possible effect {% MPE=[(test−control latency)/(10-control)]×100}. […] At 30 min post-injection, rectal temperature was measured This value was expressed as the difference between control temperature (before injection) and temperatures following drug administration (° C.). […]
# Male ICR mice [2] = assay: Tail-flick antinociception (TF, % MPE) in mice; type: in vivo, mouse; settings: Table 6; @ 30 (mg/kg)
# Procedure: as §1, §2, §3
# CB2 receptor = CB2 receptor (Homo sapiens, UniProt P34972); assay: CB2 binding procedure: displacement of [3H]CP-55,940 from membranes of transfected CHO cells; settings: relative to the comparator analog
smiles,measurement,setting,value
CCCCCCC(C)(C)c1cc(OC)c(C2(O)CCOCC2)c(OC)c1,Ki,CB1 receptor,> 10000 nM
same,S.A % effect at dose,Male ICR mice [1],36% @ 30
same,T.F. % effect at dose,Male ICR mice [2],23% @ 30
same,fold increase in CB2 affinity,CB2 receptor,3 fold
